Measured values as given in patent US20230057847A1, “GLP2 RECEPTOR AGONISTS AND METHODS OF USE” (The Scripps Research Institute, priority 2019, published 2023).

What was measured:
mouse GLP2R = target: T1, mouse GLP2R (Mus musculus, UniProt Q5IXF8); assay: In vitro potency on mouse GLP2R (cAMP, 665/615 ratio); type: cell-based; conditions: read-out: mGLP-2R IC50
T1 sequence (Q5IXF8 1-512): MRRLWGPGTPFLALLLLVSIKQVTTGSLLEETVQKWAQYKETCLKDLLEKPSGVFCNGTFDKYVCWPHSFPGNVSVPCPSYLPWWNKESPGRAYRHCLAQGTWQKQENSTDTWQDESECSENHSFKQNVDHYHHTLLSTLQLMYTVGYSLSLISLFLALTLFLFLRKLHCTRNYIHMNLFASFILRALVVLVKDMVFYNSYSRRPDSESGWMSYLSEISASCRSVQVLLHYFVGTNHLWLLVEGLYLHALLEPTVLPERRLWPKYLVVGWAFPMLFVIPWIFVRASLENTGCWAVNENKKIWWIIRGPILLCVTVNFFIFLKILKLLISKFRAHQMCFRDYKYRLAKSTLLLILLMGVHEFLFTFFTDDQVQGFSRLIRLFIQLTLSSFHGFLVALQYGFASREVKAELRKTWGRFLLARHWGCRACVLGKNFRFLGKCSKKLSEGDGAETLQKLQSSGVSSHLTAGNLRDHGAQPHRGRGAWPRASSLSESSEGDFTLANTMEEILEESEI

[1] = comparison value; cited from earlier work
[2] = comparison value; cited from earlier work; remark: listed apart in the source

Row | Substance | IC50 (mouse GLP2R) [nM] | half-life in rodents [1] [h] | half-life in monkey [2]
1 | apraglutide [reference compound] | 0.04 |  | 
2 | semaglutide |  | 8 | approximately 50 hour
